The list shows a part of the results, in another mix than the full data. Inconclusive results are not listed. Active and inactive are the calls of the source. The call rests on the fitted dose curve; in most records, active means well fitted inhibition curve with a large enough effect; inconclusive means small, poorly fitted or top-dose-only effect; inactive means no such curve, though single readings can be large or run the other way.

This experiment can be described thus: Primary qHTS assay for Inhibitors of ovarian cancer metastasis using an organotypic tumor microenvironment (TME) model.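 Further: plate controls were DMSO wells for no effect and tomatine positive control wells for full effect; nearly all actives have a fitted effect of over 65% in size.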 Particulars: SKOV3ip1-GFP adhesion/invasion on 3D omental model, fluorescence; at 45.8 µM (top of the series). The source says: PI: Ernst Lengyel MD., Ph.D. Department of Obstetrics and Gynecology, Section of Gynecologic Oncology University of Chicago Medicine, Chicago, Illinois. The tumor microenvironment (TME) is a key determinant of metastatic efficiency. We performed a quantitative high-throughput screen (qHTS) of diverse medicinal chemistry tractable scaffolds (44,420 compounds) and pharmacologically active small molecules (386 compounds) using a layered organotypic, robust assay representing the ovarian cancer metastatic TME. This 3D model contains primary human mesothelial cells, fibroblasts, and extracellular matrix, to which fluorescently labeled ovarian cancer cells are added. Initially, 100 compounds inhibiting ovarian cancer adhesion/invasion to the 3D model in a dose-dependent manner were identified. […]
PROTOCOL TABLE (as described by Inglese J, Shamu CE and Guy RK. 2007) SEQUENCE No. (e.g., 1, 2, 3, etc.); […] […] 11; Detection; Fluorescence, excitation filter 488 nm, emission filter 509 nm. […] The number of GFP-labeled cells analyzed using a fluorescent cytometer TTP LabTech Acumen eX3 using 488 nm excitation filter and 509 nm emission filter. […] Yasgar A, Shinn P, Jadhav A, Auld DS, Michael S, Zheng W, Austin CP, Inglese J and Simeonov A, Compound Management for Quantitative High-Throughput Screening. […]
Background: qHTS replaces the single test concentration by a dilution series.
`CN(CCCl)CCCl`: the activity change, negative = inhibition was inactive: 3.55%.

(Values after PubChem BioAssay AID1963576 (National Center for Advancing Translational Sciences (NCATS), 2024).)
